# From patent US5336485A, “Method for protecting animals against tacrine induced cytotoxic injury using sterol compounds” (priority 1993, dated 1994)
# System: liver
# Experiment: CCl4 induced hepatotoxicity in rats (serum AST/ALT)
# Assay type: in vivo, rat
# Method: In vivo experiments were performed to determine if alpha-TS administration protects the liver from chemical toxicity. The liver is the target organ for CCl4. CCl4 is a hepatotoxic agent that induces centrilobular liver necrosis through its metabolism to free radicals. Male Sprague-Dawley rats were given an intraperitoneal dose (100 mg/kg) of a tocopherol analog 24 hours prior to a CCl4 challenge (2.9g/kg given by oral garage). Forty eight hours after the challenge, the rats were sacrificed and the levels of aspartate aminotransferase (AST) and alanine aminotransferase (ALT) were measured.
# As discussed above, SGOT levels provide a clinical assessment of hepatotoxicity (liver damage).
# Succinate analogs were administered to male Sprague-Dawley rats 20 hours prior to a 1 g CCl4 /kg body weight oral challenge and the AST and ALT serum enzyme levels were measured 48 hours after the challenge.
# Similar to the experiments were described above, the ionizable congeners were administered to Sprague-Dawley rats by i.p. injection of a 100 mg ionizable congener/kg body weight dose 20 hours prior to oral administration of a 1 g/kg dose of CCl4, and the AST and ALT levels were measured 48 hours after the CCl4 challenge.
# [1] = 50 mg/kg ip, 48 h after 1 g/kg CCl4 (Table 41)
substance,measurement,setting,value
Retinol acetate [reference compound],ALT,[1],5.17 ± 1.32 10^3 units/L
same,AST,[1],13.00 ± 2.11 10^3 units/L
same,protection against CCl4 hepatotoxicity (in words),"rats, serum enzyme levels",potentiated CCl4 toxicity
